This passage reports Ki results from ChEMBL document CHEMBL4602697 (J Med Chem, 2020).

Chains of the proteins cited; added tags and fusions are not shown. Lines headed by an entry give the natural chain unless they say otherwise; changes in a name come on top.
UniProt P11229: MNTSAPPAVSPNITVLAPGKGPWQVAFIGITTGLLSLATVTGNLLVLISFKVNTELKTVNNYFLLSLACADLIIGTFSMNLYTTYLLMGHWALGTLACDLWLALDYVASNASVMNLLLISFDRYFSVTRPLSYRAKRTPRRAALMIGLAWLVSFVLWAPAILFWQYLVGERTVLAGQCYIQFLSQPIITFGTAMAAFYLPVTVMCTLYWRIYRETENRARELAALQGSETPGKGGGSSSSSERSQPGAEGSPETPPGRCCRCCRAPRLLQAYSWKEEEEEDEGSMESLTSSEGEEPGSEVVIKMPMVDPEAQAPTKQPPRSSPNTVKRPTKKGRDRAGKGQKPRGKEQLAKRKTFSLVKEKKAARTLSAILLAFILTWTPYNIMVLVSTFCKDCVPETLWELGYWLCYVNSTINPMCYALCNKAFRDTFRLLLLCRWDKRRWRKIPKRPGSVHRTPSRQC

The target in the test is Muscarinic acetylcholine receptor M1 (Homo sapiens, UniProt P11229). As to the kind of experiment: biochemical.

`NC(=O)C(c1ccccc1)(c1ccccc1)[C@@H]1CCN(CCc2ccc3c(c2)CCO3)C1` [DARIFENACIN] displayed a Ki of 5.5 to 8.6 nM.

The term Ki denotes the equilibrium dissociation constant of an inhibitor or competing ligand from its target.
